The text below walks through data of ChEMBL document CHEMBL1154101, “Purinergic P2X(7) receptor antagonists: Chemistry and fundamentals of biological screening” (Bioorg Med Chem, 2009).

Chains of the proteins cited; added tags and fusions are not shown. Lines headed by an entry give the natural chain unless they say otherwise; changes in a name come on top.
UniProt Q99572: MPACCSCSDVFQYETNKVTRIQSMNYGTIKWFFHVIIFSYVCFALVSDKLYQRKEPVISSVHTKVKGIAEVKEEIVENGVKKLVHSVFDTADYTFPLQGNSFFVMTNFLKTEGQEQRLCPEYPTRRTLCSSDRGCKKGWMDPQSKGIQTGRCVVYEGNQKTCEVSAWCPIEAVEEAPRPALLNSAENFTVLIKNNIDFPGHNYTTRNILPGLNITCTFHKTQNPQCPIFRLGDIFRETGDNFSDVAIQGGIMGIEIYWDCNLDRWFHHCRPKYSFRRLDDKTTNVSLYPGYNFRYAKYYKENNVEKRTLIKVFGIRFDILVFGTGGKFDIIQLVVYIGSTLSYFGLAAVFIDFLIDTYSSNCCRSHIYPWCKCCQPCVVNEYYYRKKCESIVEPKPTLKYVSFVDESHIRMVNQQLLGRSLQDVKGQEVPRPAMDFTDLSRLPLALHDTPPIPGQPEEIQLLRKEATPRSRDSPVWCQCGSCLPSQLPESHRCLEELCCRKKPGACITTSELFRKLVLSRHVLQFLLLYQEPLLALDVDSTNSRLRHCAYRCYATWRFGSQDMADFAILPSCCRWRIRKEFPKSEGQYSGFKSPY

The target of experiment [1] is P2X purinoceptor 7 (Homo sapiens, UniProt Q99572). The experiment is described as follows: Binding affinity at human P2X7 receptor.
The target in experiment [2] is T1, P2X purinoceptor 7 (Mus musculus, UniProt Q9Z1M0).
T1 sequence (Q9Z1M0 whole entry): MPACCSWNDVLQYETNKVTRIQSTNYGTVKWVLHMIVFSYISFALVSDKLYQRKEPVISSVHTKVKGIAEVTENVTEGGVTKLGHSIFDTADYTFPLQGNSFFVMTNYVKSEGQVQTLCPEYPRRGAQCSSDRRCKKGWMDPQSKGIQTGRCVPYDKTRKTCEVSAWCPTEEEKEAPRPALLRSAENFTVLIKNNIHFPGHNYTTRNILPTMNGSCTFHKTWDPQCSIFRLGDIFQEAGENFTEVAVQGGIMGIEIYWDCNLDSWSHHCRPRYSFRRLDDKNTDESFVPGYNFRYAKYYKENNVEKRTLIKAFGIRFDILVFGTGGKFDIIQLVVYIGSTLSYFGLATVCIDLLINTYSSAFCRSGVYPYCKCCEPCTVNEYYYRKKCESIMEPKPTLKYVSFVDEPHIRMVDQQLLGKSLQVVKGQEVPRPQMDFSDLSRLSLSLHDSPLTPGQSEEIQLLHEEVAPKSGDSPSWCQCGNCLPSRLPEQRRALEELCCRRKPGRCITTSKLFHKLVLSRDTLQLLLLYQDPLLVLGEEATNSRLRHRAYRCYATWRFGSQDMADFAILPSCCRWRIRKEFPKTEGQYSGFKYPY
Briefly: Binding affinity at mouse P2X7 receptor.

Regarding `[3H]c1ccc([C@H](C)N/C(=N/C#N)Nc2cccc3ncccc23)cc1`, the IC50 on P2X purinoceptor 7 [1] and at P2X purinoceptor 7 [2] was 0.01 µM throughout.
